In PMC6912361, “Systemic Toxicity Reported for CDK8/19 Inhibitors CCT251921 and MSC2530818 Is Not Due to Target Inhibition” (Cells, 2019):
Like-named read-outs stand apart in the source and are kept apart here.

Sequences of proteins named here, by UniProt entry; tags and fusion partners are left off. A change or cut given only in a name is not applied to a line headed by its entry.
UniProt Q9BWU1: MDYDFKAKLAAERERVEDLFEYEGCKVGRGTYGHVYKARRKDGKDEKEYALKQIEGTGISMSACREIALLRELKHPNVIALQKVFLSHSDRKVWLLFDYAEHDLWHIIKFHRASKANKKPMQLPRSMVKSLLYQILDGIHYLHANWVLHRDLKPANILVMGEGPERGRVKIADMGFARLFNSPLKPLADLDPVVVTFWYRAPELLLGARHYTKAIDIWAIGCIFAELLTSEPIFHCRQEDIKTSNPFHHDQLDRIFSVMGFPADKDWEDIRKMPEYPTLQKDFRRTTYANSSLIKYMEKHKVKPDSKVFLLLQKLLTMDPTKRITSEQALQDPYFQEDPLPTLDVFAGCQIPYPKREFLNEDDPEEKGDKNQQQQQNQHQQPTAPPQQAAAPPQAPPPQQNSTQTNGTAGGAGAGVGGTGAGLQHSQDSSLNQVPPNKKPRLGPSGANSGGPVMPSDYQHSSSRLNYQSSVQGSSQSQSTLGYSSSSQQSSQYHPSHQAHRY

What was measured:
CDK19 [1] = target: T1, CDK19 (Homo sapiens, UniProt Q9BWU1); assay: KdELECT Kd determination, CDK19; set-up: purchased DiscoverX; details: 11-point 3-fold serial dilution, duplicate; read-out: Kd for the inhibition of nucleotide binding, CDK19 (DiscoveRx symbol CDK11)
Procedure: To determine dissociation constants (Kds) of compounds on different targets, an 11-point 3-fold serial dilution of each test compound was tested in independent duplicate assays.

CDK19 [2] = target: T1, CDK19; assay: Cell-based QPCR assay of CDK8/19-dependent gene expression, HEK293 CDK8 single-knockout (8KO) cells; set-up: CDK8 single-knockout (8KO); endogenous in cells; host or cells: HEK293 CDK8 knockout (8KO); details: HEK293 8KO, 1 h pre-treatment, then 10 ng/mL TNFα 2 h

- Kd (CDK19 [1]): 23 nM
- IC50 (CDK19 [2]; read-out: IC50, CXCL1 mRNA expression, 8KO): 67 nM
- IC50 (CDK19 [2]; read-out: IC50, CXCL8 mRNA expression, 8KO): 67 nM
- IC50 (CDK19 [2]; read-out: IC50, MYC mRNA expression, 8KO): 49 nM
Structure (SMILES): CN1CCN(C(=O)c2ccc3cc(CCNc4ncnc5ccc(C#N)cc45)ccc3c2)CC1 [Senexin B]
